Compounds with a hit are over-represented: about 1.3% of the library has one in this group of screens.
ALOX12 inh = blocks human arachidonate 12S-lipoxygenase; Potency, µM (series often up to 108 µM), hits mostly inhibitors; purified 12hLO, xylenol orange hydroperoxide absorbance; 580,000 compounds, 1.1% hits
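Purified human 12hLO (150 nM final) in 25 mM Hepes, 0.01% Triton X-100, pH 7.0 was preincubated 15 min at room temperature with compound. Then 40 uM arachidonic acid was added, 30 min. Hydroperoxide was read by Fe-XO absorbance ratio 573/405 nm.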
miR-21 FLuc = miR-21 reporter, rising signal; HeLa miR-21 FLuc reporter, luciferase, 48 h; Potency, µM (titrated, usually from 38.3 µM); AID 2288; 340,000 tested, under 10 active; active = well fitted rising curve with a large enough effect; inconclusive = small, poorly fitted or top-dose-only effect; inactive = no such curve, though single readings can be large or run the other way;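 further: miR-21 action dims this reporter so a rising signal means less miR-21 action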
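HeLa miR-21-FLuc reporter line, endogenous miR-21; 2000 cells/well in DMEM/10% FBS; compound titration up to ~40uM final, 48 h, 37 degree Celsius; luciferase detection reagent, 15 min lysis, CCD luminescence.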
PINK1 modulator = modulators of PINK1 expression; PINK1 immunofluorescence, high-content cytometry, 24 h; Potency, µM (highest dose often 76.6 µM), most hits filed as activators; 410,000 compounds, 0.2% hits; AID 624263; active = well fitted activation curve with a large enough effect; inconclusive = small, poorly fitted or top-dose-only effect; cell line not stated here; note: nearly all actives have a fitted effect of over 65% in size
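Cells are seeded, rested 12 hours, then given compound at five concentrations or DMSO for 24 hours. After fixation, blocking and antibody staining, PINK1 amount and mitochondrial localization are scored; CCCP serves as control.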
Giardia killer = Giardia lamblia killing; Giardia lamblia trophozoite viability; activity change, % at 7.66 µM, hits read low; 340,000 compounds, 0.15% hits; in the data active = activity change below about -80%; inconclusive = between about -30% and that limit;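 note: parasites exposed to compound for two days anaerobically before the ATP read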
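Luminescent ATP signal served as the viability read-out, measured 15-30 min after adding ATP detection reagent to trophozoites that had been incubated with compounds for 48 hrs at 37 deg C anaerobically at 100 cells/well.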
ERG-DNA inh = blocks human ERG Ets domain binding to DNA | fluorescence polarization, His-ERG Ets domain / labelled DNA | Potency, µM (titrated, usually from 76.9 µM), hits mostly inhibitors | 370,000 compounds, 0.028% hits | AID 624246; active = well fitted inhibition curve with a large enough effect in the polarisation, with a control signal flat; inconclusive = small, poorly fitted or top-dose-only effect, or effect the other way, or a change in a side signal; inactive = no such curve, though single readings can be large or run the other way; the % refers to the polarisation;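 note: polarization taken with two DNA probes labelled with fluorescein and Texas red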
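His-tagged ERG Ets domain (1 uM in the protein solution; 300mM KCl, 50mM Tris-HCl, 1mM EDTA, 1mM DTT, pH 7.5) received compound, then a probe mix of 5 nM fluorescein-DNA and 100nM Texas-615-DNA. Fluorescence polarization was read for both dyes.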
PTHR1 ag = agonists of human PTHR1 parathyroid hormone receptor | Q03431 | HEK293 GP2 PTHR1 cells, GloSensor cAMP luminescence, 1 h | Potency, µM (top dose mostly 115 µM), most hits filed as activators | 410,000 compounds, 0.075% hits | AID 743266; note: nearly all actives have a fitted effect of over 55% in size
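HEK-293-derived GP2 cells expressing PTHR1 and a GloSensor cAMP reporter, 3,000/well, plated overnight, given luciferin plus IBMX (each 0.5 mM as added) for 1 h at 37 °C, then compound for 1 h at 37 °C. Luminescence was read after 15 min at room temperature.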
Hits are given with their value; i = inactive; ? = inconclusive; nt = not tested or not shown; ! = not confirmed by another sample. Unless noted, calls come from the whole dose curve; as a rule, active = well fitted curve in the direction sought with a large enough effect; inconclusive = small, poorly fitted or top-dose-only effect, or another doubt; inactive = no such curve, though single readings can be large; an effect the other way counts as inactive or inconclusive.

SMILES | ALOX12 inh | miR-21 FLuc | PINK1 modulator | Giardia killer | ERG-DNA inh | PTHR1 ag
COc1ccccc1CNc1nc(-c2ccc(C(=O)N(C)C)cc2)nc2ccccc12 | i | nt | i | nt | nt | nt
CCN(CC)CCCNc1nc2ccccc2c2[nH]c3ccc(OC)cc3c12 | 44.7µM | nt | i | -84.2 | ? | i
COc1ccccc1CNc1nc(-c2ccc(N(C)C)cc2)nc2ccccc12 | 28.2µM | nt | i | nt | nt | nt
COc1ccc(-c2nc(NCCCN(C)C)c3ccccc3n2)cc1 | i | i | i | -99.0 | i | i
CCN(Cc1ccccc1)C(=O)CCS(=O)(=O)c1ccc2c(c1)n(C)c(=O)c(=O)n2C | i | i | i | i | i | i
CCCCNC(=O)[C@@H]1CCCC[C@@H]1C(=O)NCc1c(C)nn(CC)c1C | i | nt | nt | nt | nt | nt
CC(=O)Nc1ccc(/C(C)=N/NC(N)=S)cc1 | 28.2µM | nt | nt | nt | nt | nt
CCOC(=O)C1CCN(Cc2cccc(Oc3ccccc3)c2)CC1 | ? | i | i | i | i | i
CCOC(=O)C1CCN(Cc2cccc(Oc3ccc(Cl)cc3)c2)CC1 | 1.41µM | i | i | i | i | i
O=C1CC(=Nc2ccc([N+](=O)[O-])cc2)NN1c1c(Cl)cc(Cl)cc1Cl | 31.6µM | nt | i | nt | nt | i
Cc1ccc(NC(=O)CCN2C(=O)c3ccccc3Sc3ncccc32)cc1 | i | i | i | i | i | 50.1µM!
O=[N+]([O-])c1c(Nc2cccc(Cl)c2Cl)cc(Cl)c2nonc12 | 15.8µM | nt | nt | nt | nt | nt
O=C(O)c1ccccc1Nc1cc(Cl)c2nonc2c1[N+](=O)[O-] | ? | i | i | i | i | i
Cc1ccc(-c2nc3ccccc3s2)cc1NC(=O)c1cc(-n2cnnc2)ccc1Cl | i | i | 3.55µM | i | i | i
CC(=O)Nc1cc(-c2nc3ccccc3s2)ccc1C | i | i | i | nt | i | i
Clc1ccc(-c2cc3ccccn3c2)cc1 | 3.98µM | nt | nt | nt | nt | nt
c1csc(-c2cc3ccccn3c2)c1 | i | nt | nt | nt | nt | nt
S=c1nc(-c2ccc(Cl)cc2)[nH][nH]1 | ? | i | i | i | i | i
Cc1ccc(C)n1-c1nc(=S)[nH][nH]1 | 4.47µM | i | i | i | i | i
CCC1c2ccsc2CCN1C(=O)CNC(=O)c1ccccc1 (stereo not given) | i | nt | nt | nt | nt | nt
O=C1OCC(CC2=C(O)C(=O)OC2)=C1O | i | nt | i | i | i | i
CC1=C(O)C(=O)CO1 | 25.1µM | nt | nt | nt | nt | nt
O=C(CNC(=O)c1ccccc1)N/N=C/C=C/c1ccccc1 | i | i | i | i | i | i
C/C=N\NC(=O)CNC(=O)CNC(=O)c1ccccc1 | i | i | i | i | 35.5µM | i
CCOc1ccccc1Nc1ncnc2c1c(-c1ccccc1)cn2-c1ccc(OC)cc1 | i | i | i | nt | i | i
SMILES | ALOX12 inh | miR-21 FLuc | PINK1 modulator | Giardia killer | ERG-DNA inh | PTHR1 ag
Cc1nnc(N2CCC(CO)(CN3CCCC3)CC2)c2ccccc12 | i | nt | nt | nt | nt | nt
CCc1cccc(CC)c1NC(=S)NC(C)c1ccccc1 (stereo not given) | 39.8µM | i | i | i | i | i
CC(NC(=S)NC(=O)c1cccs1)c1ccccc1 (stereo not given) | 25.1µM | nt | i | i | i | i
COC(=O)c1cc2sc(C)cc2n1Cc1nc(-c2cccc(Br)c2)oc1C | i | i | i | nt | i | i
Cn1c(=O)c2c(nc(NCCO)n2Cc2ccccc2F)n(C)c1=O | i | nt | nt | nt | nt | nt
C=CCn1c(-c2cccn(Cc3ccc(Cl)cc3)c2=O)n[nH]c1=S | ? | i | i | i | i | i
C=CCn1c(-c2cccn(Cc3ccc(Cl)cc3Cl)c2=O)n[nH]c1=S | 44.7µM | i | i | i | i | i
CCC(CO)[n+]1c(C)cc(/C=C2\Sc3ccccc3N2Cc2ccccc2)cc1C (stereo not given) | 50.1µM | ? | 11.2µM | i | i | i
CCOc1ccc(NC(=O)C(C)Oc2ccccc2OC)c2cccnc12 (stereo not given) | i | nt | nt | nt | nt | nt
CCCCNC(=S)NCC(c1ccccc1)c1c[nH]c2ccccc12 (stereo not given) | 44.7µM | i | ? | i | i | i
O=C(O)COc1ccccc1/C=N/Nc1ccc(S(=O)(=O)Nc2ccc(Cl)cc2)cc1[N+](=O)[O-] | 31.6µM | i | i | i | i | i
O=C(O)c1ccccc1NS(=O)(=O)c1ccc(N/N=C/c2c(-c3ccccc3)[nH]c3ccccc23)c([N+](=O)[O-])c1 | 12.6µM | nt | nt | nt | nt | nt
COc1ccc(NS(=O)(=O)c2cc([N+](=O)[O-])ccc2NN=Cc2ccccc2OCC(=O)O)cc1 | ? | nt | i | i | i | ?
O=C(O)COc1ccccc1C=NNc1ccc([N+](=O)[O-])cc1S(=O)(=O)Nc1ccc(Cl)cc1 | 35.5µM | nt | i | i | i | i
COc1ccc(-c2cc(N3CCCN(C(=O)c4cccc(Br)c4)CC3)n[nH]2)cc1 | i | nt | nt | nt | nt | nt
O=C(NC1CCCCC1)N1Cc2[nH]cnc2C[C@H]1c1nc(-c2cccc([N+](=O)[O-])c2)no1 | 6.31µM | nt | nt | nt | nt | nt
COc1ccc(-c2noc([C@@H]3Cc4nc[nH]c4CN3C(=O)NC3CCCCC3)n2)cc1 | 3.55µM | nt | nt | nt | nt | nt
O=C(NC1CCCCC1)N1Cc2[nH]cnc2C[C@H]1c1nc(-c2ccc3ccccc3c2)no1 | 10µM | nt | nt | nt | nt | nt
O=C(NCCNCc1c[nH]c2ccccc12)c1ccc(F)cc1 | 7.94µM | nt | nt | nt | nt | nt
O=C(NCCc1c[nH]c2ccccc12)c1ccccc1 | i | i | i | i | i | i
Cc1cccc(C)c1OCCn1c(C2CC(=O)N(c3cccc(Cl)c3)C2)nc2ccccc21 (stereo not given) | i | ? | i | nt | i | i
Cc1cccc(C)c1OCCCCn1c(C2CC(=O)N(c3ccc(F)cc3)C2)nc2ccccc21 (stereo not given) | 31.6µM | ? | i | nt | i | i
S=C1NC[C@H](Cc2ccccc2)N1CCCCC1CCCCC1 | 35.5µM | i | i | i | i | i
O=C1NC[C@H](CC2CCCCC2)N(CCc2cccc3ccccc23)C1=O | i | nt | i | nt | nt | i
S=C1NC[C@H](CC2CCCCC2)N1CCc1cccc2ccccc12 | 25.1µM | i | i | i | i | i
Cc1ccc(Cn2c(=O)c3c(nc4n3CCN4Cc3ccco3)n(C)c2=O)cc1 | i | i | i | ? | i | i
COc1cc(NS(=O)(=O)c2ccc(NC(=S)NC(=O)C(C)(C)C)cc2)nc(OC)n1 | ? | i | i | i | i | ?
COc1cc(NS(=O)(=O)c2ccc(NC(=S)NC(C)=O)cc2)nc(OC)n1 | i | nt | i | i | i | i
COc1cc(NS(=O)(=O)c2ccc(NC(=S)NC(=O)c3cccs3)cc2)nc(OC)n1 | 31.6µM | i | i | i | i | i
COc1cc(NS(=O)(=O)c2ccc(NC(=S)NC(=O)c3ccc(F)c(F)c3)cc2)nc(OC)n1 | 12.6µM | i | i | i | i | i
